Results taken from PubChem BioAssay AID1018 (Sanford-Burnham Center for Chemical Genomics, 2008).
Only a part is listed here, and it is no random draw. Active and inactive are the calls of the source. Cut-off read from the data, not from the text of the source: active = displacement above about 50%; inactive = the rest.

Sequences of proteins named here, by UniProt entry; tags and fusion partners are left off.
UniProt P98170, whole entry, looked up: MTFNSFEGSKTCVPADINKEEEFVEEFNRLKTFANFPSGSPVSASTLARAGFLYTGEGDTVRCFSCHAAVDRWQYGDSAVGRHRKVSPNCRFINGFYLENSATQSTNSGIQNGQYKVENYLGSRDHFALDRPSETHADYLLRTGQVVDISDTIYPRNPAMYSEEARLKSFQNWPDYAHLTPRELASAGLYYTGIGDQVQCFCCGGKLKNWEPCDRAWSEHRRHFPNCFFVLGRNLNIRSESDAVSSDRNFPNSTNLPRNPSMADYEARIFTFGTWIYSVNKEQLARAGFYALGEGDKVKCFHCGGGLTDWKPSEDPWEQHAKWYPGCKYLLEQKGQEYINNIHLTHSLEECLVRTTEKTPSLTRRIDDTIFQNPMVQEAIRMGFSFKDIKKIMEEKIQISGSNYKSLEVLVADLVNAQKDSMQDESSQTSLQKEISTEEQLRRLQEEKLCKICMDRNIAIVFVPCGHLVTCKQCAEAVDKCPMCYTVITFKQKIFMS

Each molecule was assayed against E3 ubiquitin-protein ligase XIAP (Homo sapiens) (UniProt P98170) (assay: small molecules displacing peptide from XIAP – biochemical, IAP family, fluorescence polarization (AID 1018)). Conditions: XIAP BIR domain, at 20 µM, active compounds read high.

| SMILES | displacement |
| --- | --- |
| Cc1cc(SC(NC(=O)c2ccccc2)C(Cl)(Cl)Cl)nc(C(C)C)n1 (centres undefined) | inactive: -4.8% |
| O=P(Nc1ccccn1)(c1cccc2ccccc12)c1cccc2ccccc12 | inactive: -5.9% |
| Cc1cc(SC(NC=O)C(Cl)(Cl)Cl)ncn1 (centres undefined) | inactive: -10% |
| O=C(COc1ccccc1)OC1CN2CCC1CC2 (centres undefined) | inactive: -2.5% |
| COP1(=S)c2c(C)nn(CCC#N)c2N=C(c2ccc(F)cc2)N1C (centres undefined) | inactive: -5.4% |
| CCC(C)N(CC(C)C)C(=S)SC(NC(C)=O)C(Cl)(Cl)Cl (centres undefined) | inactive: -4.7% |
| COc1ccc2nc(NP(=O)(c3ccccc3)c3ccccc3)sc2c1 | inactive: -3.1% |
| O=C(OC1CN2CCC1CC2)C12CC3CC(CC(C3)C1)C2 (centres undefined) | inactive: -3.5% |
| Cc1cc(=O)[nH]c(N[N+](=O)[O-])n1 | inactive: -5.8% |
| Cc1c2c(nc3ccccc13)SC(C(Cl)Cl)C2 (centres undefined) | inactive: -7.8% |
| COc1ccc(N/C(=N/P(=O)(N2CCOCC2)N2CCOCC2)N2CCOCC2)cc1 | inactive: -3.7% |
| Cc1ccc2nc3c(c(C)c2c1)CC(C(Cl)Cl)S3 (centres undefined) | inactive: -6.8% |
| CC(C)NC(=O)NP(=O)(Oc1ccccc1)Oc1ccccc1 | inactive: -7.2% |
| CCN(CC)C(=S)SC(NC=O)C(Cl)(Cl)Cl (centres undefined) | inactive: -5.2% |
| O=[N+]([O-])c1cc([N+](=O)[O-])c(-c2ccn[nH]2)s1 | inactive: -3.1% |
| ClCCSc1nnc(-c2cccnc2)o1 | inactive: -5.5% |
| CCOP1(=S)c2c(C)nn(CCC#N)c2N=C(c2ccccc2F)N1C (centres undefined) | inactive: -3.2% |
| O=P(Nc1nccs1)(Oc1ccccc1)Oc1ccccc1 | inactive: -12.7% |
| O=P(Nc1nccs1)(c1ccccc1)c1nc2ccccc2s1 (centres undefined) | inactive: -0.5% |
| O=[N+]([O-])c1ccc2c(c1)nnn2O | inactive: -0.7% |
| CCOP1(=S)c2c(C)nn(CCC#N)c2N=C(c2ccc(F)cc2)N1C (centres undefined) | inactive: -7.8% |
| Cc1cccc(OCC(=O)OC2CN3CCC2CC3)c1 (centres undefined) | inactive: -3.1% |
| COc1cc(C(=O)NCC2(N3CCOCC3)CCCCC2)cc(Cl)c1OC(C)C | inactive: -2.9% |
| COc1cc(C2NCCC3(OCCO3)C2(C)C)cc(OC)c1OC (centres undefined) | inactive: 0.8% |
| CCOP(=O)(Nc1cccc2ccccc12)OCC | inactive: -0.7% |
| Cc1ccc(NCCc2c([N+](=O)[O-])cc([N+](=O)[O-])cc2[N+](=O)[O-])cc1 | inactive: -2.2% |
| Clc1n[nH]nc1-c1nn[nH][15n]1 | inactive: -6.1% |

| SMILES | displacement |
| --- | --- |
| O=P1(Nc2ccccn2)COc2ccccc2OC1 | inactive: -5.4% |
| CC(C)/C=N\N=C(\N)N[N+](=O)[O-] | inactive: -4.4% |
| CN(C(=O)Cc1ccc(Cl)c(Cl)c1)[C@@H]1CCCC[C@H]1N1CCCC1 | inactive: 2.1% |
| CN(C)C1(CNC(=O)c2ccc(S(C)(=O)=O)cc2)CCCCC1 | inactive: -5.9% |
| Cc1nn(-c2ccccc2)c2c1P(=O)(N1CCOCC1)N(C)C(c1ccccc1)=N2 (centres undefined) | inactive: -4.7% |
| CC1CCC(C(C)C)C(OP(=O)(Nc2ccccn2)c2ccccc2)C1 (centres undefined) | inactive: -1.7% |
| Cc1ccc(OCC(=O)OC2CN3CCC2CC3)cc1 (centres undefined) | inactive: -6.5% |
| O=P1(Nc2ccc(Br)cn2)COc2ccccc2OC1 | inactive: -4.1% |
| O=P1(Nc2ncccn2)COc2ccccc2OC1 | inactive: -11.1% |
| O=P(Nc1ccccn1)(c1ccc(Br)cc1)c1ccc(Br)cc1 | inactive: -5.6% |
| C(Cc1nn[nH]n1)Cc1nn[nH]n1 | inactive: -7.8% |
| O=C(OC1CN2CCC1CC2)c1cccc(Cl)c1 (centres undefined) | inactive: -1% |
| CC(=O)NC(SC(=S)N(C)C)C(Cl)(Cl)Cl (centres undefined) | inactive: -2.4% |
| c1nnnn1CCn1cnnn1 | inactive: -2.9% |
| CC(C)C(=O)NC(Sc1ccccc1)C(Cl)(Cl)Cl (centres undefined) | inactive: -4.7% |
| O=P(Nc1nccs1)(c1ccccc1)c1ccccc1 | inactive: -7.7% |
| CC(C)(C)C(=O)NC(Sc1ccccc1)C(Cl)(Cl)Cl (centres undefined) | inactive: -0.6% |
| O=P1(Nc2nc3ccc(Cl)cc3s2)COc2ccccc2O1 (centres undefined) | inactive: -2% |
| CCOc1ccc(C2=NCC(CBr)S2)cc1 (centres undefined) | inactive: -0.2% |
| CC(=O)Nc1ccc(Oc2c([N+](=O)[O-])cc([N+](=O)[O-])cc2[N+](=O)[O-])cc1 | inactive: -4.5% |
| CCNC(=S)/N=C(\N)N[N+](=O)[O-] | inactive: 1% |
| O=C(NC1CCS(=O)(=O)C1)NP(=S)(Oc1ccccc1)Oc1ccccc1 (centres undefined) | inactive: -4.7% |
| c1ccc(-c2nn[nH]n2)c(-c2nn[nH]n2)c1 | inactive: -7.6% |
| CCOC(=O)NC(Sc1ccccc1)C(Cl)(Cl)Cl (centres undefined) | inactive: -0.6% |
| O=c1c2cc([N+](=O)[O-])ccc2[nH]c2c([N+](=O)[O-])cc([N+](=O)[O-])cc12 | inactive: -5% |
| COC(=O)c1cc2c(s1)N=C(c1ccccc1)N(C)P2(=O)N1CCOCC1 (centres undefined) | inactive: -2.2% |
| Cc1ccc(OP(=O)(Nc2ccccn2)Oc2ccc(C)cc2)cc1 | inactive: -3.4% |

| SMILES | displacement |
| --- | --- |
| CC(=O)NC(SC(=S)N(CC(C)C)CC(C)C)C(Cl)(Cl)Cl (centres undefined) | inactive: -1.8% |
| CCC(=O)N1C2C3N(C(=O)CC)C1C1N(C(=O)CC)C(C(N1C(=O)CC)N3C(=O)CC)N2C(=O)CC | inactive: -6.2% |
| Cc1cc(SC(NC(=O)c2ccc(F)cc2)C(Cl)(Cl)Cl)ncn1 (centres undefined) | inactive: -3.8% |
| CCOP(=O)(Nc1ccccc1)OCC | inactive: -7.2% |
| CCN(N=Nc1nonc1N)c1nonc1N | inactive: -8.9% |
| COc1ccccc1OP(=O)(Nc1ccc(C)cn1)Oc1ccccc1OC | inactive: 44.5% |
| CN1CCCC(OC(=O)C(c2ccccc2)c2ccccc2)C1 (centres undefined) | inactive: -5.8% |
| Clc1ccc(Cl)c(NC2=NCC(CBr)S2)c1 (centres undefined) | inactive: -3.4% |
| NC(=O)c1cc([N+](=O)[O-])cc([N+](=O)[O-])c1N | inactive: -4.9% |
| Cc1ccc(N/C(=N/P(=O)(N2CCOCC2)N2CCOCC2)N2CCOCC2)cc1 | inactive: -1.4% |
| CC(C)CC(=O)NC(Sc1ccc(Cl)cc1)C(Cl)(Cl)Cl (centres undefined) | inactive: -3.3% |
| Oc1ccccc1CNc1ccccn1 | inactive: -9% |
| O=C(NC(Sc1ccncn1)C(Cl)(Cl)Cl)c1ccccc1 (centres undefined) | inactive: -6.1% |
| Cc1c2non([O-])c-2c(C)[n+](=O)[n+]1[O-] | inactive: -3.6% |
| O=[N+]([O-])c1cccc2n[nH]nc12 | inactive: -6.7% |
| CC(=O)N1C2C3N(C(C)=O)C1C1N(C(C)=O)C(C(N1C(C)=O)N3C(C)=O)N2C(C)=O | inactive: -6.3% |
| Cc1ccc(NP(=O)(Oc2ccccc2)Oc2ccccc2)nc1 | inactive: -7.7% |
| CCc1nc2c(n1)c1c(non1O)c1c2no[n+]1[O-] | inactive: -3.6% |
| O=[N+]([O-])c1cc([N+](=O)[O-])c(CCNc2ccccc2)c([N+](=O)[O-])c1 | inactive: 1.5% |
| COc1ccc(C2=NCC(CBr)S2)cc1 (centres undefined) | inactive: -13.2% |
| CC(C)=N/N=C(\N)N[N+](=O)[O-] | inactive: -8% |
| CN(C)C(=O)OCCc1n(C)cc[n+]1C | inactive: -6.6% |
| CC1CCN(C(=O)Oc2c(Cl)cc(Cl)c3cccnc23)CC1 | inactive: -0.8% |
| CCN(/C(=N/P(=O)(N1CCOCC1)N1CCOCC1)N1CCOCC1)c1ccc(OC)cc1 | inactive: -5.6% |
| O=[N+]([O-])c1ncn(CCn2ncnc2[N+](=O)[O-])n1 | inactive: -4.6% |
